Target: Multidrug resistance-associated protein 1 (Homo sapiens, UniProt P33527)
Assay: Inhibitory concentration against multidrug resistance associated protein 1

Amino acid sequences for entries named in this document (tags omitted). A change or cut given only in a name is not applied to a line headed by its entry.
UniProt P33527: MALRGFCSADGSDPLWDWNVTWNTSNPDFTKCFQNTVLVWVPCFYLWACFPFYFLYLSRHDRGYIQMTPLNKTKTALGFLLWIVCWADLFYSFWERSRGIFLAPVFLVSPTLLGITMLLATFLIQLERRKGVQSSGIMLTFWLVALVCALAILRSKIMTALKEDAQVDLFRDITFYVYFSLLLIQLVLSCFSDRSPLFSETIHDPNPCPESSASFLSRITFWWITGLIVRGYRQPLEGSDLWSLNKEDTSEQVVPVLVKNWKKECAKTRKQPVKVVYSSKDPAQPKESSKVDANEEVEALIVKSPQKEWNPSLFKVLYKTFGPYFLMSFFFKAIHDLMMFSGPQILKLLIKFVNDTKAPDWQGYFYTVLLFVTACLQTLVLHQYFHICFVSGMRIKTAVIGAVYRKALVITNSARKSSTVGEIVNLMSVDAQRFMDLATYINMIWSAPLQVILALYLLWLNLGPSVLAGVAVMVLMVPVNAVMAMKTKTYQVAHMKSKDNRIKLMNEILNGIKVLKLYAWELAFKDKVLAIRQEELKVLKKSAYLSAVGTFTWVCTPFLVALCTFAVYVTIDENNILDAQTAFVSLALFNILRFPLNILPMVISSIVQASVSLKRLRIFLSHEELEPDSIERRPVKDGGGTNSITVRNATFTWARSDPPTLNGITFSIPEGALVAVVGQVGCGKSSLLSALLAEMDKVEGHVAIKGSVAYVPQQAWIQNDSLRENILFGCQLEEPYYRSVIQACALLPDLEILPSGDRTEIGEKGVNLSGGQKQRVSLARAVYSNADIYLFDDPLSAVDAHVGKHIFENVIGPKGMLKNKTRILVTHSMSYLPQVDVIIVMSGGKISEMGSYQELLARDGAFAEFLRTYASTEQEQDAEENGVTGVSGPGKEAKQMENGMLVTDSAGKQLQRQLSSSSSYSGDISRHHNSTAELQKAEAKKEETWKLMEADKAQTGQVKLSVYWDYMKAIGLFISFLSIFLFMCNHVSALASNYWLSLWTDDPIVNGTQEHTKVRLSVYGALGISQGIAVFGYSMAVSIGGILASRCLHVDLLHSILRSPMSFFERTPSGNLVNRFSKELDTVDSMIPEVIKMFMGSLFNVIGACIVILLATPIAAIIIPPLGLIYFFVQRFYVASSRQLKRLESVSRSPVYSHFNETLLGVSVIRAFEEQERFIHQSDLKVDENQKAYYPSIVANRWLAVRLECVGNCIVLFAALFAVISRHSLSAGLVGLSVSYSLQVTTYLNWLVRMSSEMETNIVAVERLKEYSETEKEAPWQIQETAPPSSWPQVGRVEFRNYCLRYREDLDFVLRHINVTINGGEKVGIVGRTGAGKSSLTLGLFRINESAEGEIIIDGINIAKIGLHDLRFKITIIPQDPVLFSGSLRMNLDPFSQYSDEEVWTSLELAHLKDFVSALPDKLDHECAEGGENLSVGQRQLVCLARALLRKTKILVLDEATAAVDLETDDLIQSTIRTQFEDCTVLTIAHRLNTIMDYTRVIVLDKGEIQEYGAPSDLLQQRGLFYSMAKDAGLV

| IC50 | SMILES |
| --- | --- |
| < 250 nM | O=C(Nc1cccnc1)c1c2n(c3c(N4CCN(CCc5ccc(F)c(F)c5)CC4)ncnc13)CCCC2 |
| < 250 nM | CCNC(=O)c1c2n(c3c(N4CCN(CCc5ccc(F)c(F)c5)CC4)ncnc13)CCCC2 |

Reference: ChEMBL document CHEMBL1143495, “Topological model for the prediction of MRP1 inhibitory activity of pyrrolopyrimidines and templates derived from pyrrolopyrimidine” (Bioorg Med Chem Lett, 2005)
